ChEMBL document CHEMBL1140997, “Synthesis and biological evaluation of a library of resveratrol analogues as inhibitors of COX-1, COX-2 and NF-kappaB” (Bioorg Med Chem, 2009)

Amino acid sequences for entries named in this document (tags omitted).
UniProt P23219, whole entry: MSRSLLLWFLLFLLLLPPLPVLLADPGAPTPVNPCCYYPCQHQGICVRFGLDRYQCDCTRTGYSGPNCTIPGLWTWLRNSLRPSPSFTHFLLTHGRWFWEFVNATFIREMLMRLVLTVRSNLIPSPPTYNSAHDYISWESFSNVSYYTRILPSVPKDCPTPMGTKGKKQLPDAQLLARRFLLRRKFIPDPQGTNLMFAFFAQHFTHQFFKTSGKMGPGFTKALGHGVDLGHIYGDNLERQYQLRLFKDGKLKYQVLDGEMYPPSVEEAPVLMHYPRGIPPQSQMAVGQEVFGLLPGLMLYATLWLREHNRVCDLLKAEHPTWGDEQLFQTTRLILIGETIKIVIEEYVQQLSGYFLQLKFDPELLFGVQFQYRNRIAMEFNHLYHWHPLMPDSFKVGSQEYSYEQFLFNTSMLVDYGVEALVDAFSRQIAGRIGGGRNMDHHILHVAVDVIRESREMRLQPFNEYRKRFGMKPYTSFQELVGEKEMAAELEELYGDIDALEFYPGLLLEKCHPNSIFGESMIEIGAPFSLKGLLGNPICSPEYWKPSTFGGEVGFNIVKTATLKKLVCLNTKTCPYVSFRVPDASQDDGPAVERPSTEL

Target: Prostaglandin G/H synthase 1 (Homo sapiens, UniProt P23219)
Assay: Inhibition of COX1
Outline: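 Reaction in 100 mM Tris-HCl pH 8.0 containing 1 µM heme, 500 µM phenol and 300 µM epinephrine, with enough COX-1 to make 150 ng/ml PGE2. Started with arachidonic acid (10 µM final), 10 min at room temperature, stopped into indomethacin. PGE2 measured by ELISA against a PGE2 standard curve. Values are % of solvent control; IC50 from four serial dilutions, mean of two experiments.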

pIC50: 6.08
Compound: Oc1ccc(/C=C/c2cc(O)cc(O)c2)cc1 [RESVERATROL]

pIC50: −log10 of the molar value.
